# Test results: patent publication US8710224B2, “Heterocyclic compounds as CCR2B antagonists” (AstraZeneca AB, priority 2004, dated 2014)
# Protein sequences, listed by entry. Tags and fused reporters are not part of them.
# UniProt P51681, whole entry: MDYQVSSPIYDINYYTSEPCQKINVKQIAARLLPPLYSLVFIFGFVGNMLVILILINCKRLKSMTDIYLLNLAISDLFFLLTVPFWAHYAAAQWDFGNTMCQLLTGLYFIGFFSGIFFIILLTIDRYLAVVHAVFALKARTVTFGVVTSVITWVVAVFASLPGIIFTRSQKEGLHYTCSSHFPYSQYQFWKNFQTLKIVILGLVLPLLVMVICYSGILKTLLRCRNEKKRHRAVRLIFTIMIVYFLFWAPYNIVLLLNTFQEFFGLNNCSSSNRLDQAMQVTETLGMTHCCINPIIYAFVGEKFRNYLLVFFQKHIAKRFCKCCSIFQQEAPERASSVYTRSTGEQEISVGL
# Molecular target: T1, recombinant human CCR5 receptor (Homo sapiens, UniProt P51681)
# T1 construct: expressed in transfected cells; host or cells: Chinese hamster ovary (CHO) cells; membranes
# Test: Radioligand binding assay for inhibition of the binding of MIP-1α
# Method: Biological Assay for the Ability of Compounds to Inhibit the Binding of MIP-1α This ability is assessed using an in vitro radioligand binding assay. Membranes are prepared from Chinese hamster ovary cells which express the recombinant human CCR5 receptor. These membranes are incubated with 0.1 nM iodinated MIP-1α, scintillation proximity beads and various concentrations of the compounds of the invention in 96-well plates. The amount of iodinated MIP-1α bound to the receptor is then determined by scintillation counting.
compound,measurement,value
"O=C(Nc1ccc(Cl)c(Cl)c1)N1CCN(C[C@@H]2CCCN(Cc3ccccc3)C2)CC1 [Example 18, 4-{[(3R)-1-benzylpiperidin-3-yl]methyl}-N-(3,4-dichlorophenyl)piperazine-1-carboxamide]",IC50,< 10 µM
